Data from patent US20040002117.
Changes are numbered by the printed parent chain.

Columns and labels:
[1] = target: T1, HA-tagged triple CM2 mutant NFAT1 (UniProt Q60591)
T1 sequence: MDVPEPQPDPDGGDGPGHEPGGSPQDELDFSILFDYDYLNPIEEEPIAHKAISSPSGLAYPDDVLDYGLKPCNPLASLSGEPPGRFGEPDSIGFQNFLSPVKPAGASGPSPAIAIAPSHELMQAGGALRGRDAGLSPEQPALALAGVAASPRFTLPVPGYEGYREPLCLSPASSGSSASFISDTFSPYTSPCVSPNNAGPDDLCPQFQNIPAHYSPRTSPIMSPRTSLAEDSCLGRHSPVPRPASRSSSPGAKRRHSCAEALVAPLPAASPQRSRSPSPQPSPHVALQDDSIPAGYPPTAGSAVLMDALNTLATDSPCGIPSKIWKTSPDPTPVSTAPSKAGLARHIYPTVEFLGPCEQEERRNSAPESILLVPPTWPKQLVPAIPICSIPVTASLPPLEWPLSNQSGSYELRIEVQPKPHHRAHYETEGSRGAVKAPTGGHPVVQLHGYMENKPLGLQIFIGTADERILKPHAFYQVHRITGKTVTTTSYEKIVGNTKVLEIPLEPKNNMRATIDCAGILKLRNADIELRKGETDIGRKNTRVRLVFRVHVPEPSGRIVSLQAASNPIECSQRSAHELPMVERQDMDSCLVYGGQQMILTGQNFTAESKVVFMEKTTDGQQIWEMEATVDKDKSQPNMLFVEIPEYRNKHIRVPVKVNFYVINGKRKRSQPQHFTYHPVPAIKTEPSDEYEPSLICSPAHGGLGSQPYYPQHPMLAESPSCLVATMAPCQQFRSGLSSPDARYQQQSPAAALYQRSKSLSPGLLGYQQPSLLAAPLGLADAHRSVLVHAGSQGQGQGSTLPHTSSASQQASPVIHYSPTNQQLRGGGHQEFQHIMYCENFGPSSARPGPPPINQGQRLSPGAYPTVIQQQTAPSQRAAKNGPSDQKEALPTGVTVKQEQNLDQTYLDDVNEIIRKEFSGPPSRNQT

[2] = target: T2, HA-tagged wild type NFAT1 (UniProt Q60591)
T2 sequence: T1 sequence with A112R, A114E, A116T

With calcineurin the “in vitro dephosphorylation of NFAT1 in HeLa cytoplasmic extracts by exogenous calcineurin/calmodulin (SDS-PAGE shift, anti-HA Western blot)” value [1] was “the triple CM2 mutant was markedly less sensitive, with only partial dephosphorylation occurring in the presence of 2.5 µM calcineurin” and the “in vitro dephosphorylation of NFAT1 in HeLa cytoplasmic extracts by exogenous calcineurin/calmodulin (SDS-PAGE shift, anti-HA Western blot)” value [2] was “Dephosphorylation of wild type NFAT1 was apparent with 200 nM calcineurin”.
